Reference: patent publication US11596939B2, “Lamp component distribution in a microfluid cell” (priority 2017, dated 2023)

System: target DNA
Assay: Sample pre-treatment with antimicrobial peptides before isothermal amplification
Conditions: on average; sample pre-treatment with peptide
Description: Pre-treatment of the samples with antimicrobial peptides gives increased amount of target DNA compared to normal thermal and alkaline sample preparation. Thus, the sample pre-treatment method of the present invention is well suitable with downstream amplification applications necessary for adapting the methods to POC.
SB-37 gained on average 2 times increase of the target DNA. The peptide sequence of Cecropin B analogue SB-37 is […].

Substance: Cecropin B analogue SB-37
- increase of the target DNA available for the isothermal amplification: 2 times
